These results are taken from patent US20080139564A1, “SUBSTITUTED PHENYL PROPYL AMINES AS HISTAMINE H3 RECEPTOR AND SEROTONIN TRANSPORTER MODULATORS” (priority 2006, published 2008).

Protein sequences, listed by entry. Tags and fused reporters are not part of them. Lines headed by an entry give the natural chain unless they say otherwise; changes in a name come on top.
UniProt P31652, whole entry: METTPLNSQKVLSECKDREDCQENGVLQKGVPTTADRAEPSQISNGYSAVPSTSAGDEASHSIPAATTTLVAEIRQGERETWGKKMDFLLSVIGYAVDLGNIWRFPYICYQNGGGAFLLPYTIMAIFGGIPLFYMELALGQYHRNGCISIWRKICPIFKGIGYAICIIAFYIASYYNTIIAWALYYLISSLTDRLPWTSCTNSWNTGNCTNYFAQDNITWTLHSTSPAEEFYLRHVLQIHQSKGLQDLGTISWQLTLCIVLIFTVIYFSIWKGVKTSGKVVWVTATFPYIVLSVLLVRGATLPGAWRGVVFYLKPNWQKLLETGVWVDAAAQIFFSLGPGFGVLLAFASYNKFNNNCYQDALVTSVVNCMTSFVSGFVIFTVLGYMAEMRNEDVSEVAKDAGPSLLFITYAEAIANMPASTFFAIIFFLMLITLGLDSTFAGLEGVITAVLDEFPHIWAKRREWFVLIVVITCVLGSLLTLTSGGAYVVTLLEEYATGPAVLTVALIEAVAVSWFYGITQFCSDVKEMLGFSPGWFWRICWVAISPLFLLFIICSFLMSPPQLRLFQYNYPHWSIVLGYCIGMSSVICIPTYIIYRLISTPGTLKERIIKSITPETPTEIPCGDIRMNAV
UniProt P31645, whole entry: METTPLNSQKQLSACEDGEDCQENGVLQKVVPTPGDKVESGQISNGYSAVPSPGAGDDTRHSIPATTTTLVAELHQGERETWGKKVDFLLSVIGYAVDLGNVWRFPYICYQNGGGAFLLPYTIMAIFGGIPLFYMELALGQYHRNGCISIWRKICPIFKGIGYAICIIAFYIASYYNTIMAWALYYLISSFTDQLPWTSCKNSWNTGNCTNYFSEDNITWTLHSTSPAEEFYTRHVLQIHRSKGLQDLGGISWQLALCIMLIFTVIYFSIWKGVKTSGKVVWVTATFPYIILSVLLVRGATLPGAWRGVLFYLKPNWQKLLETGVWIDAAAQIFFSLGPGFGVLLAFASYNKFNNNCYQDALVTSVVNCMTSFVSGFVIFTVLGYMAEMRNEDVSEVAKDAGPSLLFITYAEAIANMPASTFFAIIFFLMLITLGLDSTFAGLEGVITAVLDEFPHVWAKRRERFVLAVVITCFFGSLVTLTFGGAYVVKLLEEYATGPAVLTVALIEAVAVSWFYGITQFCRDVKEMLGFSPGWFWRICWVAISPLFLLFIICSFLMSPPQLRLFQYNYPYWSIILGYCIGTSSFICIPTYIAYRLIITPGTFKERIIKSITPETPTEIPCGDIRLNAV
UniProt Q9Y5N1: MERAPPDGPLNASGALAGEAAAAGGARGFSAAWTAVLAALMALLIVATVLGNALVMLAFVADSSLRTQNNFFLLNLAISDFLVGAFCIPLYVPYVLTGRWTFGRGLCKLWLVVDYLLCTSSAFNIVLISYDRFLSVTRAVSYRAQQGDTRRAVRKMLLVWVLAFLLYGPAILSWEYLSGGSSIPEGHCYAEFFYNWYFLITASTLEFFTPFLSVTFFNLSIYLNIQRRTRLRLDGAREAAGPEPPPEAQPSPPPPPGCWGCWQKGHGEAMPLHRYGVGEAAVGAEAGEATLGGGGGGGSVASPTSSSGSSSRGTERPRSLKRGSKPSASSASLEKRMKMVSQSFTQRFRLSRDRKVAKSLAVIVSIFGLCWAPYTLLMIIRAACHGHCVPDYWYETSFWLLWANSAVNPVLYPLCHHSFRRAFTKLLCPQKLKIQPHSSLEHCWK

Molecules are shown by their SMILES.

The target of one experiment is T1, Rat SERT (Rattus norvegicus, UniProt P31652).
T1 construct: A rat brain without cerebellum (Zivic Laboratories, Inc.—Pittsburgh, Pa.) was homogenized; tissue Zivic Laboratories, Inc; host or cells: rat brain without cerebellum
The experiment is described as follows: Rat brain SERT binding ([3H]-Citalopram displacement, rat brain membranes). The following applies: 0.6 nM [3H]-Citalopram, 60 min at 25° C. How it is done:
A rat brain without cerebellum (Zivic Laboratories, Inc.—Pittsburgh, Pa.) was homogenized in a 52.6 mM Tris pH 8/126.4 mM NaCl/5.26 mM KCl mixture and centrifuged at 1,000 rpm for 5 min. The supernatant was removed and re-centrifuged at 15,000 rpm for 30 min. Pellets were re-homogenized in a 52.6 mM Tris pH8/126.4 mM NaCl/5.26 mM KCl mixture. Membranes were incubated with 0.6 nM [^3H]-Citalopram plus/minus test compounds for 60 min at 25° C. and harvested by rapid filtration over GF/C glass fiber filters (pretreated with 0.3% polyethylenimine) followed by four washes with ice-cold buffer. Nonspecific binding was defined in the presence of 100 μM fluoxetine.

A further experiment deals with T2, human SERT (Homo sapiens, UniProt P31645).
T2 construct: expressed in transfected cells; host or cells: HEK293
The experiment is described as follows: Human SERT binding (3H-citalopram displacement, HEK293 membranes). Conditions: 3H-citalopram 3.1 nM, rt for 1 h. How it is done: Homogenized HEK293 (Human Embryonic Kidney) membranes expressing the human SERT were incubated with ^3H-citalopram (SERT) at rt for 1 h in 50 mM Tris, 120 mM NaCl, 5 mM KCl (pH 7.4). Nonspecific binding was determined in the presence of 10 μM fluoxetine for the SERT. The membranes were washed and the radioactivity was counted as above. Calculations for Ki at the SERT were based on a Kd value for ^3H-citalopram and a ligand concentration of 3.1 nM.

Experiment [1] addresses T3, human H3 receptor (Homo sapiens, UniProt Q9Y5N1).
T3 construct: expressed in transfected cells
The experiment is described as follows: Cyclic AMP accumulation (β-galactosidase reporter in SK-N-MC cells). The format is cell-based. The following applies: Schild regression analysis of the pEC50 values, histamine agonist, forskolin 5 μM, read-out: pA2 (converted). Here is the method: Sublines of SK-N-MC cells were created that expressed a reporter construct and the human H3 receptor. The reporter gene (β-galactosidase) is under the control of multiple cyclic AMP responsive elements. In 96-well plates, histamine was added directly to the cell media followed 5 min later by an addition of forskolin (5 μM final concentration). When appropriate, antagonists were added 10 min prior to agonist addition. After a 6-h incubation at 37° C., the media was aspirated and the cells washed with 200 μL of phosphate-buffered saline followed by a second aspiration. Cells were lysed with 25 μL 0.1× assay buffer (10 mM Na-phosphate, pH 8, 0.2 mM MgSO4, 0.01 mM MnCl2) and incubated at rt for 10 min. Cells were then incubated for 10 min with 100 μL of 1× assay buffer containing 0.5% Triton and 40 mM β-mercaptoethanol. Color was developed using 25 μL of 1 mg/mL substrate solution (chlorophenolred β-D galactopyranoside; Roche Molecular Biochemicals, Indianapolis, Ind.). Color was quantitated on a microplate reader at absorbance 570 nm. The pA2 values were calculated by Schild regression analysis of the pEC50 values.

The target of experiment [2] is T3, human H3 receptor. As to the kind of experiment: H3 receptor binding (N-[3H]-α-methylhistamine displacement, SK-N-MC cell membranes). The following applies: 0.8 nM N-[3H]-α-methylhistamine, 60 min at 25° C. Here is the method: Binding of compounds to the cloned human H3 receptor, stably expressed in SK-N-MC cells, was performed (Lovenberg, T. W. et al. J. Pharmacol. Exp. Ther. 2000, 293, 771-778). Briefly, cell pellets from SK-N-MC cells expressing the human H3 receptor were homogenized in 50 mM Tris-HCl/5 mM EDTA and re-centrifuged at 30,000 g for 30 min. Pellets were re-homogenized in 50 mM Tris/5 mM EDTA (pH 7.4). Membranes were incubated with 0.8 nM N—[^3H]-α-methylhistamine plus/minus test compounds for 60 min at 25° C. and harvested by rapid filtration over GF/C glass fiber filters (pretreated with 0.3% polyethylenimine) followed by four washes with ice-cold buffer. Nonspecific binding was defined in the presence of 10 μM histamine.

For orientation: Ki means the equilibrium dissociation constant of an inhibitor or competing ligand from its target. Read a low Ki as tighter binding. Take `CC(C)N1CCN(C(=O)c2ccc(C(CCN(C)C)Oc3ccc(C(F)(F)F)cc3)cc2)CC1` (centres unmarked) [Example 39, {4-[3-Dimethylamino-1-(4-trifluoromethyl-phenoxy)-propyl]-phenyl}-(4-isopropyl-piperazin-1-yl)-methanone]: the Ki at Rat SERT and at human SERT was 42 nM in each case.
As to `CN(C)CCC(Oc1ccc(Cl)c(Cl)c1)c1ccc(OCCCN2CCCCC2)cc1` (single isomer, unassigned; (+)) [Example 75, (+)-{3-(3,4-Dichloro-phenoxy)-3-[4-(3-piperidin-1-yl-propoxy)phenyl]-propyl}-dimethyl-amine], the Kb at human H3 receptor [1] is 7.08 nM. The results for the Ki on human SERT and on human H3 receptor [2] were 7.3 nM and 4.3 nM, respectively.
As to `CN(C)CCC(Oc1ccc(Cl)c(Cl)c1)c1ccc(OCCCN2CCCCC2)cc1` (centres unmarked) [Example 9, {3-(3,4-Dichloro-phenoxy)-3-[4-(3-piperidin-1-yl-propoxy)-phenyl]-propyl}-dimethyl-amine], the Kb on human H3 receptor [1] was 7.08 nM. Moreover, the Ki on human SERT and at human H3 receptor [2] was 5 nM each time.
For `CN(C)CCC(Oc1ccc(Cl)c(Cl)c1)c1ccc(OCCCN2CCCCC2)cc1` (single isomer, unassigned; (-)) [Example 74, (−){3-(3,4-Dichloro-phenoxy)-3-[4-(3-piperidin-1-yl-propoxy)phenyl]-propyl}-dimethyl-amine], the Kb on human H3 receptor [1] is 5.89 nM. Moreover, the Ki on human SERT is 3 nM; on human H3 receptor [2] it was 4 nM.
